Source: US20250222051A1, “MU[…] ADJUVANT TREATMENT OF TUMOR, AND PREPARATION METHOD AND APPLICATION THEREOF” (Changde Jizhi Biological Technology Co., Ltd, priority 2024, published 2025)

Test system: mouse H22 hepatoma cells
Conditions: body weight of H22 tumor-bearing mice at end; oxaliplatin 15 mg/kg tail vein once, products 0.45 g/kg intragastric

O=C1[O][Pt]2([NH][C@@H]3CCCC[C@H]3[NH]2)[O]C1=O [Oxaliplatin, oxaliplatin]
Weight Final: 20.44 ± 1.23
